Measurements from patent US20240383950A1, “RECOMBINANT GLYCAN BINDING PROTEINS AND ITS USE” (UNICHEM LABORATORIES LIMITED, priority 2021, published 2024).

Tests used:
[1] = Solubility of expressed protein in production medium, SDS PAGE; assay type: physicochemical; conditions: for solubility in production medium: SDS PAGE
Procedure: Solubility of expressed protein of SEQ ID NO. 3 and 4 in production medium (induced at 18° C. with 0.25 mM IPTG) was evaluated using SDS PAGE analysis.

[2] = Expression analysis of soluble protein at timepoints during fermentation, SDS-PAGE; assay type: physicochemical; conditions: for solubility in production medium during fermentation stages: various timepoints, SDS-PAGE
Procedure: The cells were grown in fermentation medium under controlled conditions and induced with suitable inducer. Harvesting was done at different timepoints and analysed using SDS-PAGE for expression of soluble proteins.

[3] = induced at 18° C. with 0.25 mM IPTG
[4] = batch 1-overnight, induced at 18° C. with 0.25 mM IPTG

B1: SEQ ID NO. 3: SEQ ID NO. 2 re-engineered: Serine at 1st position, Glycine at 76th position, Cysteine added at carboxy terminal end (protein)
chain: SYKITVRVYQTNPDAFFHPVEKTVWKYANGGTWTITDDQHVLTMGGSGTSGTLRFHADNGESFTATFGVHNYKRWGDIVTNLAADETGMVINQQYYSQKNREEARERQLSNYQVKNAKGRNFQIVYTEAEGNDLHANLIIGC
solubility in production medium [1, 3]: confirmed | Band % [1, 4]: 56.0% | Band % ([1]; batch 1-pellet): 49.6% | Band % ([1]; batch 1-supernatant): 47.2% | Band % ([1]; batch 2-overnight): 52.5% | Band % ([1]; batch 2-pellet): 51.1% | Band % ([1]; batch 2 supernatant): 55.4% | Abs. Quant. ([2]; Log 45 hrs Pellet): 0.33 ug/10 uL | Relative % ([2]; Log 45 hrs Pellet): 6.6% | Abs. Quant. ([2]; Log 45 hrs supernatant): 4.66 ug/10 uL | Relative % ([2]; Log 45 hrs supernatant): 93.4% | Abs. Quant. ([2]; Log 48 hrs Pellet): 1.52 ug/10 uL | Relative % ([2]; Log 48 hrs Pellet): 29% | Abs. Quant. ([2]; Log 48 hrs supernatant): 3.71 ug/10 uL | Relative % ([2]; Log 48 hrs supernatant): 71% | Abs. Quant. ([2]; Log 51 hrs Pellet): 0.40 ug/10 uL | Relative % ([2]; Log 51 hrs Pellet): 8.5% | Abs. Quant. ([2]; Log 51 hrs supernatant): 4.29 ug/10 uL | Relative % ([2]; Log 51 hrs supernatant): 91.5% | Abs. Quant. ([2]; Log 54 hrs Pellet): 1.30 ug/10 uL | Relative % ([2]; Log 54 hrs Pellet): 23% | Abs. Quant. ([2]; Log 54 hrs supernatant): 4.32 ug/10 uL | Relative % ([2]; Log 54 hrs supernatant): 77% | Abs. Quant. ([2]; Log 57 hrs Pellet): 1.73 ug/10 uL | Relative % ([2]; Log 57 hrs Pellet): 26% | Abs. Quant. ([2]; Log 57 hrs supernatant): 4.87 ug/10 uL | Relative % ([2]; Log 57 hrs supernatant): 74% | Abs. Quant. ([2]; Log 60 hrs Pellet): 1.84 ug/10 uL | Relative % ([2]; Log 60 hrs Pellet): 24% | Abs. Quant. ([2]; Log 60 hrs supernatant): 5.81 ug/10 uL | Relative % ([2]; Log 60 hrs supernatant): 76% | solubility in production medium during fermentation stages [2]: confirmed

B2: SEQ ID NO. 4: SEQ ID NO. 2 re-engineered: Serine at 1st, Glycine at 76th, Serine added at 142nd and Cysteine at 143rd position (protein)
chain: SYKITVRVYQTNPDAFFHPVEKTVWKYANGGTWTITDDQHVLTMGGSGTSGTLRFHADNGESFTATFGVHNYKRWGDIVTNLAADETGMVINQQYYSQKNREEARERQLSNYQVKNAKGRNFQIVYTEAEGNDLHANLIIGSC
solubility in production medium [1, 3]: confirmed | Band % [1, 4]: 15.64% | Band % ([1]; batch 1-pellet): 18.14% | Band % ([1]; batch 1-supernatant): 20.41% | Band % ([1]; batch 2-overnight): 19.72% | Band % ([1]; batch 2-pellet): 16.40% | Band % ([1]; batch 2 supernatant): 18.49% | Band % ([1]; batch 3-overnight): 16.57% | Band % ([1]; batch 3-supernatant): 14.55% | Band % ([1]; batch 3 pellet): 10.44% | Abs. Quant. ([2]; Log 45 hrs Pellet): 0.34 ug/10 uL | Abs. Quant. ([2]; Log 45 hrs supernatant): 3.51 ug/10 uL | Abs. Quant. ([2]; Log 48 hrs Pellet): 0.22 ug/10 uL | Abs. Quant. ([2]; Log 48 hrs supernatant): 3.58 ug/10 uL | Abs. Quant. ([2]; Log 51 hrs Pellet): 0.19 ug/10 uL | Abs. Quant. ([2]; Log 51 hrs supernatant): 4.63 ug/10 uL | Abs. Quant. ([2]; Log 54 hrs Pellet): 1.31 ug/10 uL | Abs. Quant. ([2]; Log 54 hrs supernatant): 4.33 ug/10 uL | solubility in production medium during fermentation stages [2]: confirmed
